Values of other authors, collected in patent publication US12404348B2, “Bifunctional chimeric molecules for labeling of kinases with target binding moieties and methods of use thereof” (The Brigham and Women's Hospital, Inc., priority 2021, dated 2025).
Where two headings read alike, the source gives them in different places.

System: phCRKL

For `CC(=O)NC1=NN(c2ccc(Cl)c(Cl)c2)CC1C` (centres unmarked) [Compound 45], the “Fold Increase phCRKL Vs Total Crk-1. (normalised)” value (40 min) is listed as 1x and the “Fold Increase phCRKL Vs Total Crk-1. (normalised)” value (180 min) is listed as 5x.
